pKi: −log10 of the molar value.

Sequences of proteins named here, by UniProt entry; tags and fusion partners are left off. A change or cut given only in a name is not applied to a line headed by its entry.
UniProt P28523: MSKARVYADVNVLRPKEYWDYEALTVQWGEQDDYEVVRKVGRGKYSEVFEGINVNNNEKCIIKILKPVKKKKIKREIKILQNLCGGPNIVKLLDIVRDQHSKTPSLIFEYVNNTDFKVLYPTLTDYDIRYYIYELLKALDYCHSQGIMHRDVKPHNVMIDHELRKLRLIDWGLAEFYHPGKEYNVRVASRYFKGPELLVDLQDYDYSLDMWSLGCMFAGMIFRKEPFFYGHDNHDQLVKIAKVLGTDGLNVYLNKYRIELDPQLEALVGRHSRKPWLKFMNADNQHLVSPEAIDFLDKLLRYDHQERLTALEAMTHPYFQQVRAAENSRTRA

The target of this assay is Casein kinase II subunit alpha (Zea mays, UniProt P28523). Put plainly: Inhibition of corn CK2.

In turn, `O=C1CCCCc2cnn3c(NC4CC4)nc(nc23)Nc2cccc(c2)N1` gave a pKi of 7.62.

The values are drawn from ChEMBL document CHEMBL1143858, “Structure-based design and synthesis of novel macrocyclic pyrazolo[1,5-a] [1,3,5]triazine compounds as potent inhibitors of protein kinase CK2 and their anticancer activities” (Bioorg Med Chem Lett, 2008).
